PubChem BioAssay AID652048 (National Center for Advancing Translational Sciences (NCATS), 2013)
Several values for one entry are separate records, joined by “and”; a condition that tells them apart may be missing. Identical values can stand only once. Only a part is listed here, and it is no random draw. Activity calls are given as the source filed them. No stated cut-off is given here; in the data, active means max activation above about 30%; inactive means the rest.

Amino acid sequences for entries named in this document (tags omitted).
UniProt P35462, whole entry: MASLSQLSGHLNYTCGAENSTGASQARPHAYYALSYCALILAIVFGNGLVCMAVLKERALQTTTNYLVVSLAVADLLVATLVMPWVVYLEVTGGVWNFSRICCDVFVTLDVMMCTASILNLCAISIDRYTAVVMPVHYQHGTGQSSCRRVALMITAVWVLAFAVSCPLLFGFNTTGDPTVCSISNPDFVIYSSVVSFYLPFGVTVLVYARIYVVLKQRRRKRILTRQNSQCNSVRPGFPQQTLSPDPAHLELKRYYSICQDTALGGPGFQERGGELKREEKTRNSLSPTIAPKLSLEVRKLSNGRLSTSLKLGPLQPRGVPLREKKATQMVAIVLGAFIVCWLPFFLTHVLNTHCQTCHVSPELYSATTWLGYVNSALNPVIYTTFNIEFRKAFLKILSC

What follows are molecules tested against D(3) dopamine receptor (Homo sapiens) (UniProt P35462) (assay: qHTS of D3 Dopamine Receptor Agonist: qHTS). Conditions: D3R DiscoveRx beta-arrestin cells, luminescence, 90 min; stronger effect = higher value.
Summary of the method: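 Cells at 1500/well, incubated overnight, then treated with pinned compounds (dopamine as control) for 90 min at 37 degrees C. DiscoveRx reagent added for 30 - 60 minutes at room temperature; luminescence read.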
Further: 0% is about no effect.

**Q.** With `CC(C)OP(=O)(F)OC(C)C` as the molecule, how does the max activation read?
**A.** inactive: 7.61%

**Q.** `COc1ccc(OP(C)(=O)Nc2cccc(Br)c2)cc1` (configuration not stated) was tested. Which max activation did it give?
**A.** inactive: -2.36%

**Q.** `COc1ccc(NP(C)(=O)Oc2ccccc2OC)cc1` (configuration not stated) was tested. Which max activation did it give?
**A.** inactive: 0.438%

**Q.** With `CN(C)CCOC(=O)C(O)(c1ccccc1)C1CCCCC1` (configuration not stated) as the molecule, how does the max activation read?
**A.** inactive: -18.7%

**Q.** How did the max activation turn out when `Cc1cc(-c2cccc3ccccc23)c(C)cn1.O=[N+]([O-])c1cc([N+](=O)[O-])c(O)c([N+](=O)[O-])c1` was run?
**A.** inactive: -24.7%

**Q.** Which max activation does the source give for `O=[N+]([O-])c1ccc(OP2(=O)COCCO2)cc1` (configuration not stated) here?
**A.** inactive: 1.75%

**Q.** For `Cc1c(C(c2ccc3c(c2)OCO3)c2c(C)n(C)n(-c3ccccc3)c2=O)c(=O)n(-c2ccccc2)n1C.O=[N+]([O-])c1cc([N+](=O)[O-])c(O)c([N+](=O)[O-])c1`, which max activation is on record?
**A.** inactive: -11.7%

**Q.** Which max activation does the source give for `C/C1=C2N=C(/C=C3N=C(/C(C)=C4\[N-][C@@](C)([C@@H]5N=C1[C@](C)(CCC(=O)NC[C@@H](C)OP(=O)([O-])O[C@H]1[C@@H](O)[C@@H](n6cnc7cc(C)c(C)cc76)O[C@@H]1CO)[C@H]5CC(N)=O)[C@@](C)(CC(N)=O)[C@@H]4CCC(N)=O)[C@@](C)(CC(N)=O)[C@@H]\3CCC(N)=O)C(C)(C)[C@@H]/2CCC(N)=O.[C-]#N.[Co+3]` here?
**A.** inactive: 3.33%

**Q.** `CP(=O)(Nc1ccc(SC(F)(F)F)cc1)Oc1ccc(F)cc1` (configuration not stated) was tested. Which max activation did it give?
**A.** inactive: -11.1%

**Q.** Which max activation does the source give for `CCOP(C)(=S)SCC(=O)NC(C)(CC)C(=O)O` (configuration not stated) here?
**A.** inactive: -1%

**Q.** For `CP(=O)(Nc1ccc2c(c1)OCCO2)Oc1ccccc1` (configuration not stated), which max activation is on record?
**A.** inactive: -13.5%

**Q.** For `O=[N+]([O-])c1cc([N+](=O)[O-])c(C(F)(F)F)c([N+](=O)[O-])c1O`, which max activation is on record?
**A.** inactive: -7.73%

**Q.** Which max activation does the source give for `Cc1ccccc1NP(C)(=O)Nc1ccccc1C` here?
**A.** inactive: 5.97%

**Q.** With `CC(C)c1ccc(OP(C)(=O)Nc2ccc(SC(F)(F)F)cc2)cc1` (configuration not stated) as the molecule, how does the max activation read?
**A.** inactive: 15.9%

**Q.** For `CP(=O)(Nc1ccccc1F)Oc1ccccc1` (configuration not stated), which max activation is on record?
**A.** inactive: 2.95%

**Q.** For `O=C(OCCN1CCN(CCOCc2ccccc2)CC1)C(O)(c1ccccc1)c1ccccc1`, which max activation is on record?
**A.** active: 34%

**Q.** For `CCOP(=O)(CC)Oc1ccc([N+](=O)[O-])cc1` (configuration not stated), which max activation is on record?
**A.** inactive: -8.58%

**Q.** With `Cc1cccc([N+](=O)[O-])c1[N+](=O)[O-]` as the molecule, how does the max activation read?
**A.** inactive: 4.71%

**Q.** With `COc1ccc(OP(C)(=O)Nc2ccc(SC(F)(F)F)cc2)cc1` (configuration not stated) as the molecule, how does the max activation read?
**A.** inactive: -3.89%

**Q.** Which max activation does the source give for `CCOC(=O)c1ccc(NP(C)(=O)Oc2ccc(F)cc2)cc1` (configuration not stated) here?
**A.** inactive: 3.86%

**Q.** Which max activation does the source give for `CCN(CC)CCCOC(=O)C(O)(c1ccccc1)C1CCCCC1` (configuration not stated) here?
**A.** inactive: -6.3%

**Q.** For `[As+3].[As+3].[O-2].[O-2].[O-2]`, which max activation is on record?
**A.** inactive: 5.86%

**Q.** Which max activation does the source give for `Cc1c([N+](=O)[O-])cc([N+](=O)[O-])c(Br)c1[N+](=O)[O-]` here?
**A.** inactive: -0.919%

**Q.** `CCCCCOc1ccc(NP(C)(=O)Oc2ccc(Cl)cc2Cl)cc1` (configuration not stated) was tested. Which max activation did it give?
**A.** inactive: 3.23%

**Q.** Which max activation does the source give for `CP(=O)(Nc1ccccc1)Oc1ccc(F)cc1` (configuration not stated) here?
**A.** inactive: 1.65%

**Q.** With `O=[N+]([O-])c1cccc([N+](=O)[O-])c1` as the molecule, how does the max activation read?
**A.** inactive: -0.97% and inactive: -6.44%

**Q.** Which max activation does the source give for `O=[N+]([O-])OCC(CO[N+](=O)[O-])(CO[N+](=O)[O-])CO[N+](=O)[O-]` here?
**A.** inactive: 0.362%

**Q.** `CC1=NCCc2c1[nH]c1ccccc21.O=[N+]([O-])c1cc([N+](=O)[O-])c(O)c([N+](=O)[O-])c1` was tested. Which max activation did it give?
**A.** inactive: -6.64%

**Q.** `COc1ccccc1OP(C)(=O)Nc1cccc(Br)c1` (configuration not stated) was tested. Which max activation did it give?
**A.** inactive: -11.9%

**Q.** For `Cc1cc(C)cc(OP(C)(=O)Nc2ccc(C)cc2C)c1` (configuration not stated), which max activation is on record?
**A.** inactive: 4.56%

**Q.** How did the max activation turn out when `CCOC(=O)c1ccc(NP(C)(=O)Oc2cc(C)cc(C)c2)cc1` (configuration not stated) was run?
**A.** inactive: -7.52%

**Q.** `CP(=O)(Nc1cccc(Br)c1)Oc1ccccc1` (configuration not stated) was tested. Which max activation did it give?
**A.** inactive: -15.8%

**Q.** `Cc1cc(C)cc(OP(C)(=O)Nc2ccccn2)c1` (configuration not stated) was tested. Which max activation did it give?
**A.** inactive: 12.2%

**Q.** Which max activation does the source give for `Cc1ccc(C)c(NP(C)(=O)Oc2ccccc2)c1` (configuration not stated) here?
**A.** inactive: 0.0048%

**Q.** Which max activation does the source give for `O=[N+]([O-])c1cc([N+](=O)[O-])c(-n2nnc3ccccc32)c([N+](=O)[O-])c1` here?
**A.** inactive: 3.49%

**Q.** `CC(C)N(CCCl)C(C)C` was tested. Which max activation did it give?
**A.** inactive: -0.354%

**Q.** For `CN(Cc1cccnc1)C(=O)COc1ccc(Cl)c(Cl)c1.O=[N+]([O-])c1cc([N+](=O)[O-])c(O)c([N+](=O)[O-])c1`, which max activation is on record?
**A.** inactive: 1.53%

**Q.** Which max activation does the source give for `O=[N+]([O-])c1cc([N+](=O)[O-])c(-c2cnn(-c3ccccc3)c2)c([N+](=O)[O-])c1` here?
**A.** inactive: -6.45%

**Q.** `Cc1nc2ccc3ccccc3c2s1.O=[N+]([O-])c1cc([N+](=O)[O-])c(O)c([N+](=O)[O-])c1` was tested. Which max activation did it give?
**A.** inactive: -4.74%

**Q.** With `O=[N+]([O-])c1cc([N+](=O)[O-])c(Nc2nnnn2CCO)c([N+](=O)[O-])c1` as the molecule, how does the max activation read?
**A.** inactive: -3.84%

**Q.** How did the max activation turn out when `CC1=C2N=C(C=C3N=C(C(C)=C4[N-][C@@](C)([C@@H]5N=C1[C@](C)(CCC(=O)NC[C@@H](C)OP(=O)([O-])O[C@H]1[C@@H](O)[C@@H](n6cnc7cc(C)c(C)cc76)O[C@@H]1CO)[C@H]5CC(N)=O)[C@@](C)(CC(N)=O)[C@@H]4CCC(N)=O)[C@@](C)(CC(N)=O)[C@@H]3CCC(N)=O)C(C)(C)[C@@H]2CCC(N)=O.[C-]#N.[Co+3]` was run?
**A.** inactive: -52.9%

**Q.** With `CN1CCCCC1COC(=O)C1(O)c2ccccc2CCc2ccccc21` (configuration not stated) as the molecule, how does the max activation read?
**A.** inactive: -9.41%

**Q.** How did the max activation turn out when `COc1ccccc1OP(C)(=O)Nc1c(C)cccc1C` (configuration not stated) was run?
**A.** inactive: -6.27%

**Q.** For `CP(=O)(Nc1ccc(SC(F)(F)F)cc1)Oc1ccccc1` (configuration not stated), which max activation is on record?
**A.** inactive: 3.96%

**Q.** How did the max activation turn out when `CCCOc1ccc(NP(C)(=O)Oc2ccc(Cl)cc2)cc1` (configuration not stated) was run?
**A.** inactive: 1.4%

**Q.** `CP(=S)(Nn1cnnc1)Oc1ccccc1` (configuration not stated) was tested. Which max activation did it give?
**A.** inactive: -3.55%

**Q.** Which max activation does the source give for `COc1ccccc1OP(C)(=O)Nc1ccccc1` (configuration not stated) here?
**A.** inactive: -0.605%

**Q.** With `CP(=O)(Nc1ccccc1Br)Oc1ccccc1` (configuration not stated) as the molecule, how does the max activation read?
**A.** inactive: 9.41%

**Q.** How did the max activation turn out when `CP(=O)(Oc1ccccc1)OC(c1ccccc1)C(F)(F)F` (configuration not stated) was run?
**A.** inactive: 2.14%

**Q.** With `CP(=O)(Nc1ccc(SC(F)(F)F)cc1)Oc1ccc(Cl)cc1` (configuration not stated) as the molecule, how does the max activation read?
**A.** inactive: -4.96%

**Q.** How did the max activation turn out when `Cc1cccc(C)c1OP(C)(=O)Nc1ccc(SC(F)(F)F)cc1` (configuration not stated) was run?
**A.** inactive: 0.904%

**Q.** For `Cc1cc(C)cc(OP(C)(=O)Nc2ccc(SC(F)(F)F)cc2)c1` (configuration not stated), which max activation is on record?
**A.** inactive: 2.6%

**Q.** With `CCc1ccc(OP(C)(=O)N2CCN(c3ccc([N+](=O)[O-])cc3)CC2)cc1` (configuration not stated) as the molecule, how does the max activation read?
**A.** inactive: -5.14%

**Q.** `CP(=O)(NC(=O)Nc1ccccc1)Oc1ccccc1` (configuration not stated) was tested. Which max activation did it give?
**A.** inactive: -2.85%

**Q.** For `CCOP(C)(=S)SCC(=O)NC(C)C(=O)O` (configuration not stated), which max activation is on record?
**A.** inactive: 6.12%

**Q.** How did the max activation turn out when `CN(C)CCS` was run?
**A.** inactive: -19.3%

**Q.** For `O=[N+]([O-])c1cc([N+](=O)[O-])c(O)c([N+](=O)[O-])c1.c1ccc(Oc2ccncc2)cc1`, which max activation is on record?
**A.** inactive: -6.39%

**Q.** `CCOC(=O)c1ccc(NP(C)(=O)Oc2ccc(OC)cc2)cc1` (configuration not stated) was tested. Which max activation did it give?
**A.** inactive: 7.38%

**Q.** Which max activation does the source give for `CP(=O)(Nc1ccccn1)Oc1ccc(Cl)cc1` (configuration not stated) here?
**A.** inactive: 2.58%

**Q.** `CCN(CC)CCCOC(=O)C(O)(c1ccccc1)c1ccccc1` was tested. Which max activation did it give?
**A.** inactive: -9.41%

**Q.** With `COc1ccccc1-c1ccccn1.O=[N+]([O-])c1cc([N+](=O)[O-])c(O)c([N+](=O)[O-])c1` as the molecule, how does the max activation read?
**A.** inactive: -6.35%

**Q.** How did the max activation turn out when `O=[N+]([O-])[O-].[NH4+]` was run?
**A.** inactive: 11.7%

**Q.** Which max activation does the source give for `O=[N+]([O-])c1cc([N+](=O)[O-])c(Nc2cccnc2)c([N+](=O)[O-])c1` here?
**A.** inactive: 9.35%

**Q.** With `Cc1cccc(C)c1OP(C)(N)=O` (configuration not stated) as the molecule, how does the max activation read?
**A.** inactive: -0.511%

**Q.** `CC(C)(C)c1ccc(OP(C)(=O)Nc2ccc(SC(F)(F)F)cc2)cc1` (configuration not stated) was tested. Which max activation did it give?
**A.** inactive: -5.77%

**Q.** With `O=[N+]([O-])c1ccc2c(c1)C=Nc1ccccc1O2` as the molecule, how does the max activation read?
**A.** inactive: -10.6%

**Q.** How did the max activation turn out when `CCOC(=O)c1ccc(NP(C)(=O)Oc2ccccc2)cc1` (configuration not stated) was run?
**A.** inactive: -3.68%

**Q.** Which max activation does the source give for `Cc1ccc(NP(C)(=O)Oc2ccccc2)c(C)c1` (configuration not stated) here?
**A.** inactive: 0.901%

**Q.** With `COc1ccccc1OP(C)(=O)Nc1ccc(C)cc1` (configuration not stated) as the molecule, how does the max activation read?
**A.** inactive: -3.29%

**Q.** How did the max activation turn out when `COc1ccc(OP(C)(=O)Nc2cccc(F)c2)cc1` (configuration not stated) was run?
**A.** inactive: 4.28%

**Q.** How did the max activation turn out when `COc1ccccc1OP(C)(=O)Nc1cc(Cl)ccc1C` (configuration not stated) was run?
**A.** inactive: -2.95%

**Q.** For `Cc1cc(C)cc(OP(C)(N)=O)c1` (configuration not stated), which max activation is on record?
**A.** inactive: -5.79%
